# Measured affinities in a library of Ab-14 light chain variants

Reference: Li et al. 2023, doi:10.1038/s41467-023-39022-2. File: FLAb, binding data.

All variants were tested on one target, the spike HR2 peptide PDVDLGDISGINAS (SARS-CoV-2).

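Phage display of a naive human antibody library on the peptide gave the parent. This is the validation round: designs drawn from the data on random variants, tested in the same kind of assay. Several design methods are mixed in this list. Affinity was read by AlphaSeq, a pooled yeast mating assay with surface-displayed partners. Mating (16 h, 30 °C) was followed by selection of diploids and sequencing of their barcodes. Each replicate has its own calibration line, from reference interactions of the BCL2 family. Mating was done six times.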

Ab-14 is the parent antibody, in scFv form: VH, then a (GGGGS)3 linker, then VL. The heavy chain is unchanged in all variants.
VH: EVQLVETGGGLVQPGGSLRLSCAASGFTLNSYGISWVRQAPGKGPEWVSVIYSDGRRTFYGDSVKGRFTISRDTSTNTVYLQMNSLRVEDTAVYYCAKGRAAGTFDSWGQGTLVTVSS
VL: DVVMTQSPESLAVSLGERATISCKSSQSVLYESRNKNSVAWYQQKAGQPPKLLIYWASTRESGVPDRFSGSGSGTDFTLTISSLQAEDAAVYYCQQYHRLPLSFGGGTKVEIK

Variants are written as CDR1, CDR2 and CDR3 of the light chain (limits as in the source). Parent: KSSQSVLYESRNKNSVA, WASTRES, QQYHRLPLS. Affinities are written as log10 Kd with Kd in nM; a lower number is a better binder. Replicates are averaged; those with no signal do not enter the mean. "nd" means that the variant was in the library but no mating with the target was seen in any replicate; the authors take this as a sign of poor binding, and no number exists.

CDR-L1,CDR-L2,CDR-L3,"mean, log10 nM",seen in
TITQSAQMESHNKNSVA,DLNVRGN,QQYDRLPLS,nd,0 of 6
VLPDPMLMFEMQYNSIA,EGVQLME,QQYERLPLT,1.88,3 of 6
HLNGEWNHGANRDNNIA,EAQTVAA,QDYFRLPII,-0.08,6 of 6
KISGSVMMLSRNKNSVA,EATTRES,QQYHRLPLS,-0.22,6 of 6
KYSQSYMYESRNKNSVA,GASTRES,QQYHRLPLS,0.16,6 of 6
KIGATLNQMMHKKNNVA,DLVTREN,QQYHRLPLS,0.54,6 of 6
KASQSWGYESRNKNSVA,GASTRES,QQYHRLPLS,-0.40,6 of 6
KLQQSWLYESRNKNSVA,EASQRES,QQYHRLPLS,-0.29,6 of 6
KISMLMENSHVNRNSVA,ELVTRMK,QQYNRLPLS,0.58,6 of 6
KLYFNVGTMSHNTQSIA,DMERRED,QQYHRLPLS,0.59,6 of 6
KSSQSWGYESRNKNSVA,AASTRES,QQYHRLPLS,-0.11,6 of 6
FFSLIQDSYGEANNSIA,ERNTKAP,QQYSRLPLV,2.21,6 of 6
KSSQSVLKEHRFKNNVA,WASTRES,QQYHRLPLS,1.85,6 of 6
KSSQSVLYESRNKNQVA,NASTRES,QQYHRLPLS,2.60,6 of 6
KLGMYLNTLYEKADNVA,DLVEREN,QQYHRLPLS,0.80,6 of 6
KSSQSVLLESENKNSVA,HASTRES,QQYHRLPLS,0.02,6 of 6
KQSQSVLYESRNKNSVA,DASTRES,QQYHRLPLF,-0.13,6 of 6
KFSQSVLYESRTSNSVA,DASTRES,QQYHRLPLS,-0.07,6 of 6
KDSQSVLYESFNKNSVA,GASTREN,QQYHRLVLS,nd,0 of 6
KSSQSWLYESRNKNSVA,HASTRMQ,QQYHRLPLS,-0.02,6 of 6
TLTQVTMVESYNKGSVA,QASTRLE,QDYHRLPLS,0.79,6 of 6
KSSQSVLYESRNVNSVA,GANTRES,QQYHRAPLS,nd,0 of 6
KLSISYLYESRNKNSVA,EASTREQ,QQYHRLPLS,-0.28,6 of 6
KSSSSVLYESRNKNSVA,WASTRES,QQYERLPLS,0.03,6 of 6
KSSRSVLYESRNKNSVA,WASIRES,QQYHRLPLS,2.49,2 of 6
KSLWSVLYESLNKNSVA,HASTRED,QQYHRLPLS,1.42,6 of 6
KSSQSVLYESLNKNSVA,NASTREM,QQYHRLPLS,0.34,6 of 6
KLQQSVEYESRNKNSVA,NASTREV,QQYHRLPLS,0.20,6 of 6
KLWQSELYESRNKNSVA,NASTRLS,QQYHRLPLS,-0.29,6 of 6
KIMQSVTEESLNKNSVA,WAQTRES,QQYHRLPLS,1.34,6 of 6
KSSQSNLYEMRNGNSVA,WASHRES,QQYHRLILS,nd,0 of 6
KSLWSVLYESGNKNSVA,HASTRED,QQYHRLPLS,0.39,6 of 6
KCEQSWGYESRNKNNVA,NASQRES,QQYHRLPLS,0.79,6 of 6
NLFGVEFESAQMGNAIA,DMSHVMA,QQYFMLPLH,0.94,6 of 6
KMTEQLLNGEREPSNIA,AQVIGSD,QQYHHLPLI,2.25,3 of 6
IVSQLMLWGYTAKNSIA,EAETRIN,QQYHHLPLF,nd,0 of 6
KSSQSVLVESSNKNSVA,EASTRES,QQYHRLPLS,0.34,6 of 6
IFSQSVLMGNMTRNSVA,QASERFN,QQYDRLPLI,2.17,6 of 6
KLRMSTLYESRNKNSVA,WASTREE,QQYHRLPLS,0.44,6 of 6
SISGFMKSLAAHNNSVA,DMTNRED,QQYDRLPLS,1.33,6 of 6
MISNVMNTLTRQGNNVA,DLAEREE,QQYFRLPLS,0.73,6 of 6
KSSQSVLYESRNKNSVA,QASDRES,QQYHRMPLS,1.92,6 of 6
KLRMSTLYESRNKNSVA,QASTRES,QQYHRLPLS,0.00,6 of 6
KFMQSMGYESRNKNSVA,QASTRSS,QQYHRLPLS,0.37,6 of 6
KSSVSYLYESRNTNSVA,EASTRES,QQYHRLPLS,-0.02,6 of 6
KLSATYRYESQNKNSIA,EMSTREM,QCYHRLPLS,4.18,1 of 6
KLLQNTAVGMRWANNVA,HMSTREP,QQYHRLPFV,1.83,4 of 6
KLSGSVMMLSRNDNSVA,DASTRES,QQYHRLPLS,-0.26,6 of 6
RQSQSVLVESSNKSSVA,SASTRES,QQYHRLPLS,1.27,6 of 6
KLSQSVLYESRNKNSVA,NASTRES,QQYIRLPLG,-0.32,6 of 6
KLSSSFLYEDRMKNSVA,QASQRES,QQYHRLPLS,0.59,6 of 6
KSSQSVLQESRNKNSVA,GASTRCS,QQYVRLPLS,0.31,6 of 6
KSSQSELMESRNKNSVA,DASTRES,QQYWRLPLS,-0.25,6 of 6
NLGFVDDNDNRGMMSVA,DANTVGE,QQYNRLPLA,0.87,6 of 6
HMSMLSLQGQRHRNSVA,QMTTRVN,QQYDRLPLI,1.46,6 of 6
KSSWSVLYESRNKNSVA,EASTRES,QQYHRLPLS,0.48,6 of 6

Again, the first 5 entries without any signal:

CDR-L1,CDR-L2,CDR-L3,"mean, log10 nM",seen in
TITQSAQMESHNKNSVA,DLNVRGN,QQYDRLPLS,nd,0 of 6
KDSQSVLYESFNKNSVA,GASTREN,QQYHRLVLS,nd,0 of 6
KSSQSVLYESRNVNSVA,GANTRES,QQYHRAPLS,nd,0 of 6
KSSQSNLYEMRNGNSVA,WASHRES,QQYHRLILS,nd,0 of 6
IVSQLMLWGYTAKNSIA,EAETRIN,QQYHHLPLF,nd,0 of 6

A sequence measured in both rounds can read differently, since the two assays cover different ranges. In the paper, a design with two or fewer of six values counts as a poor binder. Empty control strains, which show no peptide, gave a signal in 4% of pairings with all light chain designs; the median was 2.64 and 95% of these signals were weaker than 1.59. No background was subtracted. Of ten entries with the parent sequence, four were seen in most replicates (averages 0.34 to 2.37), three in one and three in none, so single entries are noisy.